Results as given in patent publication US10570379B2, “Polypeptides for carbon-carbon bond formation and uses thereof” (INVISTA North America S.à.r.l., priority 2015, dated 2020).

Assay: Solubility of the expressed protein (Table 3)
Conditions: protein expressed in E. coli

B1: Bdigene 237: Acetate/Propionate CoA-transferase (YdiF) from Clostridium propionicum, Uniprot Q9L3F7, SEQ ID NO: 1 (protein, listed as Clostridium propionicum)
chain: MRKVPIITADEAAKLIKDGDTVTTSGFVGNAIPEALDRAVEKRFLETGEPKNITYVYCGSQGNRDGRGAEHFAHEGLLKRYIAGHWATVPALGKMAMENKMEAYNVSQGALCHLFRDIASHKPGVFTKVGIGTFIDPRNGGGKVNDITKEDIVELVEIKGQEYLFYPAFPIHVALIRGTYADESGNITFEKEVAPLEGTSVCQAVKNSGGIVVVQVERVVKAGTLDPRHVKVPGIYVDYVVVADPEDHQQSLDCEYDPALSGEHRRPEVVGEPLPLSAKKVIGRRGAIELEKDVAVNLGVGAPEYVASVADEEGIVDFMTLTAESGAIGGVPAGGVRFGASYNADALIDQGYQFDYYDGGGLDLCYLGLAECDEKGNINVSRFGPRIAGCGGFINITQNTPKVFFCGTFTAGGLKVKIEDGKVIIVQEGKQKKFLKAVEQITFNGDVALANKQQVTYITERCVFLLKEDGLHLSEIAPGIDLQTQILDVMDFAPIIDRDANGQIKLMDAALFAEGLMGLKEMKS
Solubility: ✓
